From US20240148707A1, “MODULATION OF DRUG-DRUG INTERACTIONS OF VADADUSTAT” (Akebia Therapeutics, Inc., priority 2021, published 2024)

Assays:
Type in all cases: in vivo, human
[1] = Phase I drug-drug interaction study with sevelamer carbonate; conditions: concurrent vadadustat and sevelamer carbonate; 90% CI 57.96-68.16
Protocol: A phase I, open-label, fixed-sequence study was conducted in healthy adult subjects to assess the effect of sevelamer carbonate as phosphate binders on the pharmacokinetics of a single dose of vadadustat.
Pharmacokinetics. A predose PK blood sample was collected on Day 1. […] The 48-hour postdose sample was collected before vadadustat administration on Days 3, 5, and 7. The following parameters were calculated and analyzed: AUC0-∞, AUC0-last, Cmax, Tmax, Kel, CIB, Vc/F, and t1/2.
Subjects were dosed approximately at the same designated time on each dosing day, where applicable. Study drugs were administered with approximately 8 ounces (240 mL) of water at room temperature in a seated position. Subjects were instructed to drink the full 8 ounces of water, and not to chew or break the tablets/gelcaps.
A single oral dose of vadadustat 300 mg (2×150 mg tablets) was administered on Days 1, 3, 5, and 7. Phosphate binder that is sevelamer carbonate (1600 mg, 2×800 mg tablets) was administered on Days 3, 5, and 7. […]

[2] = Phase I drug-drug interaction study with probenecid (Part 1, Arm 2); conditions: vadadustat 300 mg with vs without probenecid 500 mg Q12h
Protocol: (§1) A phase I, open-label, 2-part study was conducted in healthy male and female subjects to evaluate the potential for interaction of cyclosporine (Part 1, Arm 1), probenecid (Part 1, Arm 2), and rifampin (Part 2) with vadadustat.
Following a 2-day washout (Days 1 to 2), subjects received 1 oral probenecid 500 mg tablet Q12 h for 4 days (Days 3 to 6). On days that probenecid was administered alone (Days 3, 4, and 6), probenecid was administered in a fasted state 1 hour prior to a standard breakfast and 1 hour prior to an evening meal or snack. On Day 5, probenecid was co-administered with a single dose of vadadustat (300 mg as 2×150 mg tablets) following at least a 10-hour fast. Subjects remained fasted for at least 4 hours after dosing.
On days vadadustat was administered (Day 1 and Day 5), blood samples for PK analysis were collected up to 48 hours postdose. In addition, on vadadustat dosing days, pooled urine samples were collected up to 24 hours post-dose. Subjects were discharged from the CRU on the morning of Day 7, after the final 48-hour post-dose PK sample had been collected. A follow-up phone call was conducted 30 days±2 days after the final dose.

[3] = Influence of meal on pharmacokinetics, single dose 450 mg; conditions: single dose 450 mg, healthy adult males
Protocol: The median tmax of this drug was prolonged by postprandial administration for about 1.5 hours as compared with fasting.

[4] = Phase I drug-drug interaction study with cyclosporine (Part 1, Arm 1); conditions: vadadustat 300 mg with vs without cyclosporine 500 mg
Protocol: as §1
Subjects were randomized in a 1:1 ratio to 1 of 2 dosing sequences (A:B or B:A) to receive vadadustat 300 mg alone and vadadustat 300 mg in combination with oral cyclosporine 500 mg in a crossover design. Study drugs were administered in the morning after at least a 10-hour overnight fast. Subjects remained fasted for at least 4 hours post-dose. • Treatment A: a single oral dose of vadadustat (300 mg) administered as 2×150 mg tablets. • Treatment B: a single oral dose of vadadustat (300 mg) administered as 2×150 mg tablets co-administered with a single oral dose of cyclosporine (500 mg) administered as 5×100 mg capsules.
On the morning of Day 1, subjects received the first treatment (A or B). Following a 7-day washout, subjects crossed over to Period 2 to receive the second treatment of the dosing sequence (A or B) on Day 8.
On each dosing day (Day 1 and Day 8) blood samples for PK analysis were collected up to 48 hours post-dose. […] A follow-up phone call was conducted 30 days±2 days after the final dose.

O=C(O)CNC(=O)c1ncc(-c2cccc(Cl)c2)cc1O [Compound 1, {[5-(3-chlorophenyl)-3-hydroxypyridine-2-carbonyl]amino}acetic acid]
geometric LS mean ratio of AUC0-∞ to vadadustat alone [1]: 62.85%
AUCinf, Ratio (V + P)/V [2]: 182.13%
AUClast, Ratio (V + P)/V [2]: 178.95%
Cmax, Ratio (V + P)/V [2]: 102.79%
Ratio of the geometric mean of Cmax, fasted or fed ([3]; 90% CI [68%, 79%]): 73%
Ratio of the geometric mean of AUC0-inf, fasted or fed ([3]; 90% CI [90%, 98%]): 94%
AUCinf, Ratio (V + C)/V [4]: 116.89%
AUClast, Ratio (V + C)/V [4]: 116.97%
Cmax, Ratio (V + C)/V [4]: 81.76%
